Chains of the proteins cited; added tags and fusions are not shown. Chains listed by the source or under a name are the forms on record and can include a tag or linker. Residues count along the entry.
UniProt P08637, 17-208: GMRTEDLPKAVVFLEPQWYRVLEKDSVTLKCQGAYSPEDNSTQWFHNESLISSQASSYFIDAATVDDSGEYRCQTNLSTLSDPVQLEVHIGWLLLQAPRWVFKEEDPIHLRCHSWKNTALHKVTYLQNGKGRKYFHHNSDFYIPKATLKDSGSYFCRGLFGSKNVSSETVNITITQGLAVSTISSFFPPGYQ
L19 IgG control antibody (unmodified, without linker) (human), light, as listed by the source, chain 2 of 2: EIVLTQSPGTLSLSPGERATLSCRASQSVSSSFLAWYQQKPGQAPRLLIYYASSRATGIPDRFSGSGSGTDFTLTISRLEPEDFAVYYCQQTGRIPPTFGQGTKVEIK
L19 IgG control antibody (unmodified, without linker) (human), heavy, as listed by the source, chain 1 of 2: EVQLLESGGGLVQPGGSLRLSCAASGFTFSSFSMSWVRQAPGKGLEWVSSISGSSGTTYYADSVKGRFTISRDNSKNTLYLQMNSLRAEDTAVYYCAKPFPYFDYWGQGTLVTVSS

In publication PMC3154154:

Target: L19 IgG control antibody (unmodified, without linker) (human)
Assay: SPR; Biacore T100; L19 IgG or modified versions immobilised on a CM5 chip treated with antibody capture kit; soluble Fc receptor fragments as analytes at 1.56 - 50 nM; association and dissociation kinetics used to calculate the dissociation constant

Fcγ RIIIA/CD16a, soluble Fc receptor fragment (from UniProt P08637 17-208)
Kd: 89 nM
